Read-outs that look alike come from different tables or passages of the source.
Assays:
HIF-PHD2 = HIF-PHD2 (Homo sapiens, UniProt Q9GZT9); experiment: Assay for HIF-PHD2 Catalytic Activity (PHD2 Binding Activity); assay type: biochemical; conditions: read-out: IC50 (nM) HIF-PHD-1 (second entry of the head; HIF-PHD2 in the text), comparison compounds of WO 2008/030412
HIF-PHD1 = HIF-PHD1 (Homo sapiens, UniProt Q96KS0); experiment: Inhibition of the catalytic activity of HIF-PHD1; conditions: read-out: IC50 (nM) HIF-PHD-1, comparison compounds of WO 2008/030412
HIF-PHD3 = HIF-PHD3 (Homo sapiens, UniProt Q9H6Z9); experiment: Inhibition of the catalytic activity of HIF-PHD3; conditions: read-out: IC50 (nM) HIF-PHD-3, comparison compounds of WO 2008/030412

Protein sequences, listed by entry. Tags and fused reporters are not part of them.
UniProt Q9GZT9, whole entry: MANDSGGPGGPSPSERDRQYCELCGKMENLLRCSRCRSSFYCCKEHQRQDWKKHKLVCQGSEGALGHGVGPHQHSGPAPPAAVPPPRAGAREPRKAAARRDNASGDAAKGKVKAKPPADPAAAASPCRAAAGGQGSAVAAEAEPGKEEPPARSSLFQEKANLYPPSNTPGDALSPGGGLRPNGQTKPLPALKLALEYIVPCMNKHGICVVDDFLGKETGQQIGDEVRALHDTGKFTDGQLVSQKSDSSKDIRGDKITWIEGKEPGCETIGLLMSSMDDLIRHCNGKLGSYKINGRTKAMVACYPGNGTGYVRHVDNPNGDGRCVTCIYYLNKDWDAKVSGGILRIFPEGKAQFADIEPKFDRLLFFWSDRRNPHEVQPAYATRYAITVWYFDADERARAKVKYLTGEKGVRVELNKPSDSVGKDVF
UniProt Q96KS0, whole entry: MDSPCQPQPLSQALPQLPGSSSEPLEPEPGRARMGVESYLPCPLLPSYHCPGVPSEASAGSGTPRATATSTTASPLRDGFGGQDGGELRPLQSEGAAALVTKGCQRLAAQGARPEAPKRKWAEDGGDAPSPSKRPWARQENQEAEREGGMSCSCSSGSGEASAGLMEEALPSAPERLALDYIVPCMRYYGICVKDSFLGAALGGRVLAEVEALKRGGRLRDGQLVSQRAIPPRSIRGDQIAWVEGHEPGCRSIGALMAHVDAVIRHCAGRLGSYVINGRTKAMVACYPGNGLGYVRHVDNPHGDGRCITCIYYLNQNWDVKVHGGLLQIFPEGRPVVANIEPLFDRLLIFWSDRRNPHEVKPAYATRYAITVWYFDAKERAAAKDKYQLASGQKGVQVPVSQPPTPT
UniProt Q9H6Z9, whole entry: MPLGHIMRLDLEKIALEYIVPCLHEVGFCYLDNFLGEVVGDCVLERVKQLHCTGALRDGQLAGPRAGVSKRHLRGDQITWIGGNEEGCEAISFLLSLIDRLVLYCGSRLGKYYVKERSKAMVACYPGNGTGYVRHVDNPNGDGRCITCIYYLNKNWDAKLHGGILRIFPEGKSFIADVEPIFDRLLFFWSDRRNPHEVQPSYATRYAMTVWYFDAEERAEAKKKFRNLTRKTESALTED

Cc1cc(CN2C(=O)N(c3cccc(F)c3)[C@@]3(CCN(Cc4cccnc4)[C@@H](C)C3)C2=O)no1
IC50 (HIF-PHD2): > 10000 nM
IC50 (HIF-PHD1): > 10000 nM
IC50 (HIF-PHD3): > 10000 nM

Cc1cc(CN2C(=O)N(c3cccc(F)c3)[C@@]3(CCN(Cc4ccoc4)[C@@H](C)C3)C2=O)no1
IC50 (HIF-PHD2; tested form: TFA): > 50000 nM
IC50 (HIF-PHD1; tested form: TFA): > 50000 nM
IC50 (HIF-PHD3; tested form: TFA): > 50000 nM
